Some results for these compounds are left out of this collection, so the calls shown say nothing about other tests.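 Where inhibition never reached the appropriate level, the endpoint shown equals the highest concentration tested. Otherwise, values were interpolated linearly from a five-concentration, 48-hour dose response in 96-well plates. At the TGI there is no net growth.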
Columns and labels:
Assay in all cases: DTP human tumour cell line panel, 48 h
[1] = system: SNB-75 CNS
[2] = system: SK-OV-3 ovarian
[3] = system: PC-3 prostate
[4] = system: MDA-MB-435
[5] = system: UACC-62 melanoma
[6] = system: MCF7 breast
[7] = system: NCI-H522 lung
[8] = system: HCT-116 colon
[9] = system: DU-145 prostate
[10] = system: A498 renal
[11] = system: SNB-19 CNS
[12] = system: IGROV1 ovarian
[13] = system: SF-268 CNS
[14] = system: SK-MEL-5 melanoma
[15] = system: CAKI-1 renal
[16] = system: HOP-62 NSCLC
[17] = system: HS 578T breast
[18] = system: OVCAR-3 ovarian
[19] = system: ACHN renal
[20] = system: T-47D breast
[21] = system: MDA-N
[22] = system: U251 CNS
[23] = system: RXF 393 renal
[24] = system: TK-10 renal
[25] = system: MDA-MB-231 breast
[26] = system: 786-0 renal
[27] = system: NCI-H23 lung
[28] = system: BT-549 breast
[29] = system: NCI-H322M lung
[30] = system: SF-539 CNS
[31] = system: HOP-92 NSCLC
[32] = system: A549 NSCLC
[33] = system: HT29 colon
[34] = system: SK-MEL-2 melanoma
[35] = system: NCI-H460 lung
[36] = system: SN12C renal
[37] = system: SK-MEL-28 melanoma
[38] = system: NCI/ADR-RES ovarian
[39] = system: SW-620 colon
[40] = system: OVCAR-5 ovarian
[41] = system: UACC-257 melanoma
[42] = system: KM12 colon
[43] = system: SF-295 CNS
[44] = system: K-562 leukemia
[45] = system: MALME-3M melanoma
[46] = system: COLO 205 colon
[47] = system: OVCAR-4 ovarian
[48] = system: EKVX NSCLC
[49] = system: RPMI-8226 leukemia
[50] = system: UO-31 renal
[51] = system: M14 melanoma
[52] = system: OVCAR-8 ovarian
[53] = system: HCT-15 colon
[54] = system: NCI-H226 lung

Measured: TGI

C=C(C)C#CC(O)(C(=O)OC1CCN(C)CC1)c1ccccc1 (centres undefined)
> 100 µM: all assays above
